Experimental data: patent US10125117B2, “Activation or reactivation of ache” (dated 2018)

Protein sequences, listed by entry. Tags and fused reporters are not part of them. Residues count along the entry.
UniProt P22303, 32-614 limits assumed: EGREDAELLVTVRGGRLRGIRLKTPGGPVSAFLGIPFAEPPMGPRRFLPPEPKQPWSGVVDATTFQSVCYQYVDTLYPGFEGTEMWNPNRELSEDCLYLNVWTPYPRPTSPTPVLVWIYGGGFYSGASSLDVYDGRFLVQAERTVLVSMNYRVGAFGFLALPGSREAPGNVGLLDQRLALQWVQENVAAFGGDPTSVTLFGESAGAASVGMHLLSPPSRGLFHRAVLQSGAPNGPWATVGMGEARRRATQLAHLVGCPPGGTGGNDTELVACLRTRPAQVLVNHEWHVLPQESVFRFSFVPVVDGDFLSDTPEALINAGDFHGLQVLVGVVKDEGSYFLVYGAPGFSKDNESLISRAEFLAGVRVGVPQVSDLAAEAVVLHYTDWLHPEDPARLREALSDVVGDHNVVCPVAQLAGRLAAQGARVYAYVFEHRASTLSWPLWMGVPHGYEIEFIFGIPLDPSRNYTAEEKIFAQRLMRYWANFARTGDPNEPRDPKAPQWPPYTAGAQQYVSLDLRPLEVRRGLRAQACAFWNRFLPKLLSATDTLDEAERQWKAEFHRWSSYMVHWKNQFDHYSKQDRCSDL
UniProt P06276, 29-602 limits assumed: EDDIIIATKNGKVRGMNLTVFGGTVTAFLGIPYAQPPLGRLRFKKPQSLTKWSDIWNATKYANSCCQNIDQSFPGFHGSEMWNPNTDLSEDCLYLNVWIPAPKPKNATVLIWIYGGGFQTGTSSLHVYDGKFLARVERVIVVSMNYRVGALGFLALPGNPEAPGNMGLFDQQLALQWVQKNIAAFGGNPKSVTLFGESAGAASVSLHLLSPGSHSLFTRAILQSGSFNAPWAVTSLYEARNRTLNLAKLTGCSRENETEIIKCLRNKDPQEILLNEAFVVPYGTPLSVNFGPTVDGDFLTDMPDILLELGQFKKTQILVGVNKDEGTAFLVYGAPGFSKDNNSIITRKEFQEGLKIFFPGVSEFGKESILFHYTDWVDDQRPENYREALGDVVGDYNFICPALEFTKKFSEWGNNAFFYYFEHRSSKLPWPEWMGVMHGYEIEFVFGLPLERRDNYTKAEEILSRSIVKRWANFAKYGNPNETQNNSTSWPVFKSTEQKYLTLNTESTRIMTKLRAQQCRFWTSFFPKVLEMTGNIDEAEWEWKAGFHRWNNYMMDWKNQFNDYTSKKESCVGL
UniProt P21836, 32-614 limits assumed: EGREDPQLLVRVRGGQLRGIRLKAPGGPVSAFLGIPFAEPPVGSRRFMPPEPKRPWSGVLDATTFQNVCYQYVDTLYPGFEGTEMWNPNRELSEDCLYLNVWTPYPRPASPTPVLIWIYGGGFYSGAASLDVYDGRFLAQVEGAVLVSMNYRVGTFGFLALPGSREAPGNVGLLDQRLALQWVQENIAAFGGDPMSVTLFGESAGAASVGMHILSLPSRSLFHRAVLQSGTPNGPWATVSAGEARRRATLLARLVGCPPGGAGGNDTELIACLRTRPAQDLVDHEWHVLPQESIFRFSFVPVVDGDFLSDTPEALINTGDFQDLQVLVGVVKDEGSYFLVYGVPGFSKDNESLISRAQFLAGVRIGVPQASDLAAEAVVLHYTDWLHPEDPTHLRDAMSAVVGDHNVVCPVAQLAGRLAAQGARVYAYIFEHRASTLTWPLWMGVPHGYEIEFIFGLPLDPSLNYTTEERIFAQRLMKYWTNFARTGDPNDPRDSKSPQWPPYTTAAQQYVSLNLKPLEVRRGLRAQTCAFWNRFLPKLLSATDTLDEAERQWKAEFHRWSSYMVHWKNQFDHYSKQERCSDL

Legend:
AChE [1] = target: T1, AChE (Homo sapiens, UniProt P22303); assay: Solid-phase AChE assay, screening for reactivators of inhibited AChE; settings: for reactivation activity on inhibited AChE: screen and expansion libraries, inhibitor DIPF or paraoxon
AChE [2] = target: T1, AChE; assay: AChE activity with allosteric activators
[3] = target: paraoxon inactivated huBuChE (Homo sapiens, UniProt P06276); settings: human BuChE inactivated by paraoxon
Solubility = settings: comparison in words
AChE [4] = target: T1, AChE
AChE [5] = target: AChE (Mus musculus, UniProt P21836); settings: mice, tissues harvested 24 hours after challenge
[6] = target: human AChE inhibited by paraoxon (Homo sapiens, UniProt P22303); assay: Reactivation of paraoxon-inhibited human AChE; settings: concentrations below saturation on hu-AChE
mouse PO-inhibited AChE = mouse PO-inhibited AChE (Mus musculus, UniProt P21836); assay: Reactivation of mouse PO-inhibited AChE compared with human; settings: three hours
BALB mice = assay: Toxicity of ADOC in BALB mice
AChE [7] = target: T1, AChE; assay: Protection of AChE from DFP
huAChE adduct with SIMP = huAChE adduct with SIMP (Homo sapiens, UniProt P22303); settings: soman-like adduct, after aging
DFP-inhibited AChE = DFP-inhibited AChE (Homo sapiens, UniProt P22303); assay: Reactivation of DFP-inhibited AChE (rate constants, reactivation efficacy)

Cc1cc(CN(C)C)cc(CN(C)C)c1O
reactivation activity on inhibited AChE (AChE [1]): identified as reactivators

NCCCC[C@H](N)C(=O)O
activation of AChE activity (AChE [2]): activators

O=C(NCCCn1ccnc1)c1cc(-c2ccc(Br)cc2)nc2ccccc12
reactivation of BuChE [3]: do not reactivate | toxicity, distress in mice (mice; 500 mg/kg): not obviously toxic | LD50 (mice; mice): > 500 mg/kg | solubility (Solubility): more soluble than amodiaquine

CCN(CC)Cc1cc(Nc2ccnc3cc(Cl)ccc23)ccc1O
reversibility of AChE inhibition (AChE [4]): reversible | reactivation of BuChE [3]: reactivated | AChE activity in tissues after DFP challenge (AChE [5]): relatively low | reactivation rate (kr2) compared with 2-PAM and HI-6 [6]: faster | reactivation of mouse AChE compared with human (mouse PO-inhibited AChE): faster reactivation of mice and guinea pig AChE than for human | reactivation of mouse AChE compared with human (mouse PO-inhibited AChE; listed as ADQ): better than for human analog | Ka, reactivation (AChE [1]): 3 µM | reactivation activity compared with chloroquine (AChE [1]): higher reactivation activity than chloroquine

2-(4-Bromo-phenox)-3-(3-dimethylaminomethyl-2,4-dihydroxy-phenyl)-ethanone
reactivation activity on inhibited AChE (AChE [1]): identified as reactivators

1-Morpholinomethyl-2-napthol
reactivation activity on inhibited AChE (AChE [1]): identified as reactivators

Cc1onc(-c2ccccc2Cl)c1C(=O)N[C@@H]1C(=O)N2[C@@H]1SC(C)(C)[C@@H]2C(=O)O
reactivation activity on inhibited AChE (AChE [1]): reactivators of AChE

CC(N)C12CC3CC(CC(C3)C1)C2 (centres unmarked)
activation of AChE activity (AChE [2]): activators

CCN(CC)Cc1cc(N)ccc1O
reactivation of BuChE [3]: do not reactivate | solubility (Solubility): more soluble than amodiaquine | liver histology (BALB mice; maximum dose (120 mg/kg)): no pathomorphological changes | effect on mice up to seven days after injection (BALB mice; up to 120 mg/kg by injection): no effect

1-Piperidinomethyl-2-napthol
reactivation activity on inhibited AChE (AChE [1]): identified as reactivators

CN(C)Cc1cc(C(C)(C)CC(C)(C)C)ccc1O
reactivation activity on inhibited AChE (AChE [1]): identified as reactivators

2-(4,5-Dihydro-1H-imidizol-2-yl)phenol
reactivation activity on inhibited AChE (AChE [1]): identified as reactivators

CC12CC3CC(C)(C1)CC(N)(C3)C2
activation of AChE activity (AChE [2]): activators

N=C(N)NCCC[C@H](N)C(=O)O
activation of AChE activity (AChE [2]): activators

COc1cc(C(c2cc3c(cc2O)OCO3)N2CCOCC2)cc(OC)c1OC (centres unmarked)
reactivation activity on inhibited AChE (AChE [1]): identified as reactivators

CN1CCN(CCCN2c3ccccc3Sc3ccc(Cl)cc32)CC1
protection of AChE from DFP (AChE [7]): protect against DFP | protection of AChE from DFP (AChE [7]; listed as Prochlorperazine): effective protector | activation of AChE activity (AChE [2]): activators

Clc1ccc(OCCCCCn2ccnc2)c(Cl)c1
solubility (Solubility): more soluble than amodiaquine

NC12CC3CC(CC(C3)C1)C2
protection of AChE (AChE [7]; 500 μM): enhanced protection | protection of AChE (AChE [7]; 50 and 500 μM): provide protection | activation of AChE activity (AChE [2]): activators

Oc1ccc(Nc2ccnc3cc(Cl)ccc23)cc1
reactivation activity on inhibited AChE (AChE [1]): identified as reactivators

pralidoxine
reactivation of AChE inhibited by SIMP, maximal activities (huAChE adduct with SIMP): poorly re-activatable | reactivation rate constant (DFP-inhibited AChE): 0.0567 M⁻¹ s⁻¹

CN1CCN(CCCN2c3ccccc3Sc3ccc(C(F)(F)F)cc32)CC1
protection of AChE from DFP (AChE [7]): protect against DFP | activation of AChE activity (AChE [2]): activators

5-[3-(4-Methyl-piperazine-1-yl)-propyl]-10,11-dihydro-5H-dibenzo[b,f]azepeine
activation of AChE activity (AChE [2]): decrease

8-((Dimethylamino)me)-3-(2-fluorophenoxy)-7-hydroxy-2-methyl-4H-chromoen-4-one
reactivation activity on inhibited AChE (AChE [1]): identified as reactivators

COc1cc2ccc(=O)oc2cc1O
reactivation activity on inhibited AChE (AChE [1]): reactivators of AChE | reactivation activity on inhibited AChE (AChE [1]; listed as Scopoletin): comparable to pralidoxine activity

Read-outs that look alike come from different tables or passages of the source.
